Values quoted from earlier work in patent publication US5231089A, “Method of improving oral bioavailability of carbamazepine” (priority 1992, dated 1993).

Details: 15 mg/mL hydroxypropyl-β-cyclodextrin (Uekama et al); cited from earlier work

**Q.** Which solubilization in water does the source give for `O=[N+]([O-])O[C@H]1CO[C@H]2[C@@H]1OC[C@H]2O[N+](=O)[O-]` here?
**A.** improved solubilization
